Drawing on publication PMC8752476 (Journal of molecular biology, 2021), this text covers Kd for one compound.

Sequences of proteins named here, by UniProt entry; tags and fusion partners are left off. Residues count along the entry.
UniProt P00519, 229-515: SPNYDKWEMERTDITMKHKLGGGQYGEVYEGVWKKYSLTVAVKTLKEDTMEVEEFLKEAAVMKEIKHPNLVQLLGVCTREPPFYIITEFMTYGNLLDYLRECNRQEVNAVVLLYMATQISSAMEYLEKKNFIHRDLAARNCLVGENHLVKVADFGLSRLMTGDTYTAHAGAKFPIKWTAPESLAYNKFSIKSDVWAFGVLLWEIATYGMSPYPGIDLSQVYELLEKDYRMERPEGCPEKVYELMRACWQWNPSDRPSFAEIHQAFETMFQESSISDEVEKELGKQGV

The experiment deals with Abl kinase domain, myristoyl pocket (Homo sapiens, UniProt P00519). Description: ITC, binding to the myristoyl. Particulars: read-out: Kd, myristoyl pocket, for imatinib the catalytic site is already filled with imatinib. For orientation: Isothermal titration calorimetry measures the heat released or taken up as one component is titrated into another.

As for `O=C(NCCO)c1cccc(-c2cc(Nc3ccc(OC(F)(F)F)cc3)ncn2)c1` [GNF5], the Kd is approximately 1 µM.

As usually defined, the Kd is the equilibrium constant for the complex coming apart.
